Data reported in patent US4485039A, “Synthetic analogues of α-melanotropin” (University Patents, Inc., priority 1982, dated 1984).

Test system: chymotrypsin
Assay: enzymatic stability on exposure to chymotrypsin
Conditions: chymotrypsin 0.1 units/ml

Substance: [Half-Cys^4, half-Cys^10 ]-α-MSH
- period the compound remained stable: at least 4 hours
- state after 24 hours (24 hours): completely inactivated
